Results on one compound are retold here after PubChem BioAssay AID504324 (Broad Institute, 2011).

The entries are a selection whose mix differs from that of the whole data set. Calls of active or inactive are those of the source.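 How the source made its calls: active means compounds lowering the signal whose fitted half-maximal concentration is at most ten times their top tested dose; inconclusive means flat curve with a 30 to 70% drop, or poor fit; inactive means rising signal, flat curve, or potency beyond limit.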

This experiment in a line: HRE-luciferase induction in zinc-containing medium – U2OS HRE-luc cells, dry powder, mechanism study for HIF pathway activator project, dose response (AID 504324). Particulars: U2OS HRE-luciferase reporter, luminescence, at 38 µM (top of the series). The gist of the method:
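Material: human osteosarcoma U2OS cells stably expressing 3×HRE-driven luciferase reporter / Schedule: 24 h plating, then 24 h compound treatment at 37 °C / Detection: Steady-Glo luciferase luminescence / Medium: phenol red-free DMEM, 10% FBS, plus 50 µM zinc sulfate / Compound: 8-point, 3-fold compound series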

As for `O=c1[nH]c2ccccc2n1C1CCN(Cc2ccc(O)c3ncccc23)CC1`, the activity change, negative = decrease was inactive: 30.7%.
